Reference: patent US4753949A, “2-chloronicergoline having antihypoxic activity” (Richter Gedeon Vegyeszeti Gyar Rt., priority 1985, dated 1988)

The chains behind the UniProt entries cited, without tags or fusion partners.
UniProt P61169, whole entry: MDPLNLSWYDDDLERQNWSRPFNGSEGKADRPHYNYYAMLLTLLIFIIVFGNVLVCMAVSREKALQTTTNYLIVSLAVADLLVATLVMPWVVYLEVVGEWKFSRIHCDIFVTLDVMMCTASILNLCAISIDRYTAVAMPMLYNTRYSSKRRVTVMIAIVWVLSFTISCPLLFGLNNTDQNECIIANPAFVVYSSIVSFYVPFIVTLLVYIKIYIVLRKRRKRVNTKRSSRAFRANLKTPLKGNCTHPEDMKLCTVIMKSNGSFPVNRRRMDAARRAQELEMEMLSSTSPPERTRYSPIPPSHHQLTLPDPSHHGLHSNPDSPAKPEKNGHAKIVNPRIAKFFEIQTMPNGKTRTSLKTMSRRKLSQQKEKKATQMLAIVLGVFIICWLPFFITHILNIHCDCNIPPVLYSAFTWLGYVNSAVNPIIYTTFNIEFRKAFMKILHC

Experiments:
[1] = Antihypoxic effect: survival time under hypobaric hypoxic conditions (170 mmHg); assay type: in vivo, rats (male SHR); settings: 2.5 mg/kg
Procedure: The studies were carried out on male SHR rats weighing 160 to 180 g as well as on CFLP mice of both sexes weighing 18 to 21 g. The compounds to be tested were orally administered in a volume of 5 ml/kg of body-weight (in the case of rats) or in a volume of 10 ml/kg of body-weight (in case of mice) at the 60th minute before beginning the experiment.
Nicergoline was dissolved in a tartaric acid solution of 0.4%, whereas the compounds to be tested were dissolved in a TWEEN 80 solution of 5% and diluted to the desired concentration by adding physiological saline.
The results are expressed as percentages.
Investigation of the antihypoxic effect
[I. Baumel et al.: Proc. Soc. Exp. Ther. Biol. N.Y. 132, 629 (1969]
Rats (n=5) were treated with various doses of the compounds to be tested and after 60 minutes the survival time was measured under hypobaric hypoxic conditions (170 mmHg). In the Table, the survival time is expressed as the percentage of that of the control group.

D-2 receptor = molecular target: T1, D-2 receptor (Rattus norvegicus, UniProt P61169); assay: D-2 receptor binding (3H-spiroperidol); design: species or system Hannover Wistar rats; settings: ratio of IC50 values
T1 construct: the striatum from their cortex was prepared; from tissue; host or cells: striatum membranes of Hannover Wistar rats
Procedure: Investigation of the D-2 receptor binding
Hannover Wistar rats were decapitated and the striatum from their cortex was prepared. The striata were homogenized in a 10-fold volume of a cold buffer solution (50 mmoles of TRIS HCl, 120 mmoles of NaCl, 2 mmoles of KCl, 1 mmole of MgCl2 and 5 mmoles of CaCl2 at pH 7.4) and centrifuged at 45000 g for 15 minutes.
For investigating the D-2 receptor binding, a membrane preparation, a buffer, a ligand (0.5 nmole of ^3 H-spiroperidol) and the compound to be tested in a defined concentration were used in a total volume of 2 ml.

CO[C@]12C[C@@H](COC(=O)c3cncc(Br)c3)CN(C)[C@@H]1Cc1cn(C)c3cccc2c13 [Nicergoline, 1,6-dimethyl-10α-methoxyergoline-8β-methanol 5-bromonicotinate]
mean survival time under lethal hypobaric hypoxic conditions (in words) [1]: not influenced
Selectivity ratio D-2/α1 (D-2 receptor): 13.5 nmole/nmole
